Results from PubChem BioAssay AID743266 (National Center for Advancing Translational Sciences (NCATS), 2014).
Only a part is listed here, and it is no random draw. Some of these compounds have results that are not shown, active ones among them. Calls of active or inactive are those of the source. Calls follow the shape of the dose curve; as a rule, active = well fitted activation curve with a large enough effect; inconclusive = small, poorly fitted or top-dose-only effect, or another doubt; inactive = no such curve, though single readings can be large or run the other way.

Chains of the proteins cited; added tags and fusions are not shown.
UniProt Q03431, whole entry: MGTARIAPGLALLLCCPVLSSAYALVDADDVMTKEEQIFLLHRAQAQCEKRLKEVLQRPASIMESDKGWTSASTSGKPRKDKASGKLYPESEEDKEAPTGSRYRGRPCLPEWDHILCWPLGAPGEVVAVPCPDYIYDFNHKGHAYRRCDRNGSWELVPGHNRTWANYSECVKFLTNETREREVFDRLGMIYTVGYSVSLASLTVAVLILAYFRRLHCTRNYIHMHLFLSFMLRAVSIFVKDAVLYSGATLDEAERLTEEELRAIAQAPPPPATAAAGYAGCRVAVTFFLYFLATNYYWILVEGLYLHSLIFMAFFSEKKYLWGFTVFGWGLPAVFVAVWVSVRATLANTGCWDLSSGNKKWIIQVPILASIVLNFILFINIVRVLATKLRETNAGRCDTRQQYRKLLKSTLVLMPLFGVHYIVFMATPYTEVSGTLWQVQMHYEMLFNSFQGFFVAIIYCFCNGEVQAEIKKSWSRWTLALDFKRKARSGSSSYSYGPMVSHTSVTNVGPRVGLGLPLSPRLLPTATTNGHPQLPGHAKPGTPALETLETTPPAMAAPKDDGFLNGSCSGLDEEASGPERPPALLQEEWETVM

Molecular target: Parathyroid hormone/parathyroid hormone-related peptide receptor (Homo sapiens) (UniProt Q03431)
Test: qHTS for PTHR1 Agonists: Primary Screen; also: nearly all actives have a fitted effect of over 55% in size
Settings: HEK293 GP2 PTHR1 cells, GloSensor cAMP luminescence, 1 h; activation: at 115 µM (top of the series) unless noted

Row | SMILES | activation | outcome
1 | Cc1cc(C(=O)NCC2(N3CCCCC3)CCCCC2)ccc1[N+](=O)[O-] | inactive: -13.3% | –
2 | CCN1CCCC(OC(=O)C2(O)c3ccccc3C=Cc3ccccc32)C1 (configuration not stated) | inactive | –
3 | O=C(NCC1(N2CCCCC2)CCCCC1)c1cccc(Br)c1 | inactive | –
4 | COc1ccc(C(=O)NCC2(N(C)C)CCCCC2)cc1 | inactive | –
5 | CCOc1cccc(C(=O)NCC2(N(C)C)CCCCC2)c1 | inactive | –
6 | C=CCN1CCN(CCOC(=O)C(O)(c2ccccc2)c2ccccc2)CC1 | inactive | –
7 | O=C(NCC1(N2CCCCC2)CCCCC1)c1cc(F)c(F)cc1Cl | inactive: 5.12% | –
8 | CCCCOc1ccccc1C(=O)NCC1(N(C)C)CCCCC1 | inactive: 4.82% | –
9 | CN(C)C1(CNC(=O)c2ccccc2[N+](=O)[O-])CCCCC1 | inactive | –
10 | Cc1ccccc1C(=O)NCC1(N2CCCCC2)CCCCC1 | inactive | –
11 | CN(C)C1CCCC1OC(=O)C(O)(c1ccccc1)c1ccccc1 (configuration not stated) | inactive: -19.1% | –
12 | CN(C)c1ccc(C(=O)NCC2(N(C)C)CCCCC2)cc1 | inactive | –
13 | CN(C)C1(CNC(=O)c2ccccc2F)CCCCC1 | inactive: -9.96% | –
14 | Cc1ccc(C(=O)NCC2(N3CCCCC3)CCCCC2)cc1 | inactive | –
15 | CC(C)N1C(=O)CC2(CCN(CCOC(=O)C(O)(c3ccccc3)c3ccccc3)CC2)C1=O | inactive: -29.4% [at 57.5 µM] | –
16 | CCN(CC)CC(C)C(C)OC(=O)C(O)(c1ccccc1)c1ccccc1 (configuration not stated) | inactive | –
17 | CN(C)C1(CNC(=O)c2cccc(Cl)c2)CCCCC1 | inactive: -21% | –
18 | COc1cc(SC)ccc1C(=O)NCC1(N(C)C)CCCCC1 | inactive: -13.2% | –

Row | SMILES | activation | outcome
19 | CN1[C@@H]2CC[C@H]1CC(OC(=O)C(O)(c1ccccc1)c1ccccc1)C2 (some centres not stated) | inactive | –
20 | O=C(NCC1(N2CCCCC2)CCCCC1)c1cc([N+](=O)[O-])ccc1Cl | inactive | –
21 | CN(C)c1cccc(C(=O)NCC2(N(C)C)CCCCC2)c1 | inactive: -8.4% | –
22 | CC(C)Oc1ccc(C(=O)NCC2(N(C)C)CCCCC2)cc1 | inactive: -4.73% | inactive
23 | O=C(OCCN1CCCC1)C(O)(c1ccccc1)c1ccccc1 | inactive: -21.5% | –
24 | Cc1cccc(C(=O)NCC2(N(C)C)CCCCC2)c1 | inactive | –
25 | COc1cc(C(=O)NCC2(N(C)C)CCCCC2)cc(OC)c1OC | inactive | –
26 | COc1ccc(Br)c(C(=O)NCC2(N3CCCCC3)CCCCC2)c1 | inactive: 13.3% | –
27 | C=C(C)C#CC(O)(C(=O)OC1CCN(C)CC1)c1ccccc1 (configuration not stated) | inactive: -10.8% | –
28 | CC(C)COc1ccc(C(=O)NCC2(N(C)C)CCCCC2)cc1 | inactive: -17.5% | –
29 | O=C(OC1CN2CCC1CC2)C(CO)(c1ccccc1)c1ccccc1 (configuration not stated) | inactive: -52.9% [at 57.5 µM] | –
30 | COc1cccc(C(=O)NCC2(N3CCOCC3)CCCCC2)c1 | inactive: -9.69% | –
31 | O=C(NCC1(N2CCCCC2)CCCCC1)c1cccc(Cl)c1 | inactive: -48.3% | –
32 | COc1ccc(C(=O)NCC2(N(C)C)CCCCC2)cc1Cl | inactive | –
33 | COc1cccc(C(=O)NCC2(N3CCCCC3)CCCCC2)c1 | inactive | –
34 | COc1ccc(Cl)cc1C(=O)NCC1(N(C)C)CCCCC1 | inactive: -5.95% | –
35 | COc1cc(C(=O)NCC2(N(C)C)CCCCC2)c([N+](=O)[O-])cc1OC | inactive | –
36 | CN(C)C1(CNC(=O)c2ccc(Br)cc2)CCCCC1 | inactive: -18.5% | –
